How the values were obtained:
[1] = tested on: intestinal aminopeptidases; experiment: Protection against degradation by aminopeptidase in vivo: YdAGFdL bioavailability after ileal dosing; conditions: YdAGFdL alone, no protecting agent, ileally fistulated rats
Method: The pentapeptide enkephalin analogue D-AJa-D-Leu-enkephalin (YdAGFdL) (1.0 mg) was directly ileally dosed to chronically ileally fistulated rats. Radiolabeled YdAGFdL (1.12 microgram) was dosed with each of four protecting agents: (1) decanted soy flour, <1K MW; (2) decanted and ultrafitered soy flour, 1K-30K MW; (3) pepsin-treated (FMC ACTI-MOD) soy flour, <30K MW; (4) the potent aminopeptidase inhibitor amastatin (positive control). Blood was collected from a jugular vein cannula at various times post-dosing, and intact YdAGFdL was quantified by a radiometric thin layer chromatography (TLC) method utilizing reverse phase KC-18 TLC plates (Whatman Co.). The TLC plates were developed with 30:701 -propanol/0.1 M phosphate buffer (pH 4.1).

[2] = Lee, Journal of Controlled Release, 13, 213 (1990), cited from earlier work

Row | Substance | % YdAGFdL Bioavailability [1] | bioavailability following oral administration ([2]; oral) | bioavailability following vaginal administration ([2]; vaginal)
1 | D-Ala-D-Leu-enkephalin [None (control)] | 1.78 ± 0.46% | – | –
2 | insulin | – | 0.05% | 18%
